# Measurements published in patent publication US4571399A, “7-(1-Methyl-5-p-methylbenzoylpyrrole-2-acetamidoethyl)-theophylline with anti-platelet aggregant and broncholytic activity” (Medosan Industrie Biochimiche Riunite S.p.A., priority 1983, dated 1986).
compound,measurement,setting,value
"Cc1ccc(C(=O)c2ccc(CC(=O)NCCn3cnc4c3c(=O)n(C)c(=O)n4C)n2C)cc1 [compound (1), 7-(1-methyl-5-p-methylbenzoylpyrrole-2-acetamidoethyl)theophylline]",mortality over the long or short term,doses and routes used in the experiments described,no mortality
same,apparent signs of toxic effects,in vivo,no apparent signs of toxic effects
same,toxic effects,in vivo,no significant toxic effects
